One block for each compound: values may come before it.
Experiments:
[1] = molecular target: human karyopherin β2 (Kapβ2) (Homo sapiens, UniProt Q92973); test: Kapβ2-induced fluorescence changes in dansyl-DPR probes (turn-on response); settings: for binding to Kapβ2 (conclusion from fluorescence): 520 nm fluorescence intensity, n=3; for change in fluorescence intensity on addition of Kapβ2: various Kapβ2 concentrations, probe 300 nM, 35 °C, 10 min
From the text: (§1) MBP-tagged human FUS (Cell, 173(3):693-705.e22 (2018); hereinafter “MBP-FUS”), human karyopherin β2 (Cell, 173(3):693-705.e22 (2018); hereafter referred to as “Kapβ2”), C. elegans importin β family protein (UniProt accession number: A0A131MBF9; hereafter referred to as “Imb-2”), human heteronuclear ribonucleoprotein protein A2 (Cell, 163(4):829-839 (2015); hereafter described as “hnRNPA2LC”), and human peptidyl prolyl cis-trans isomerase A (Cell, 163(4):829-839 (2015); hereafter referred to as “PPIA”) were provided by Professor Tomohide Saio of the Institute for Advanced Enzyme Research, University of Tokushima. Human importin α1 (Cell, 173(3):693-705.e22 (2018); hereinafter described as “Impα”), human importin β1 (Cell, 173(3):693-705.e22 (2018); hereinafter referred to as “Impβ”), GST-tagged M9M peptide (Cell, 173(3):693-705.e22 (2018); hereafter referred to as “GST-M9M”), and human GTP-bound Ran (Q69L) (UniProt accession number: P62826; hereinafter referred to as “RanGTP”) were provided by Assistant Professor Takuya Yoshizawa, Faculty of Life Science, Ritsumeikan University.
(§2) A buffer solution (20 mM Tris-HCl (pH 7.5), 150 mM NaCl, and 2 mM DTT (final concentration)) was used to prepare the probe solutions (final concentration 300 nM) for probes 1 to 7 above. Each probe solution was added to a 384-well microplate (Corning, 3575) at 30 μL/well using an automated pipetting system (Andrew+, Andrew Alliance). After incubation at 35 °C for 10 min, fluorescence intensity (fluorescence wavelength: 520 nm) and fluorescence spectrum (fluorescence wavelength: 400-700 nm) at an excitation wavelength of 340 nm were measured using a microplate reader (Cytation 5, BioTek). Then, various concentrations of Kapβ2 solution (Kapβ2/pure water) were added to the 384-well microplate at 30 μL/well using an automated pipetting system. After incubation at 35 °C for 10 minutes, fluorescence intensity and fluorescence spectrum were measured under the same conditions as above.

Chains of the proteins cited; added tags and fusions are not shown. Residues count along the entry.
UniProt Q92973, whole entry: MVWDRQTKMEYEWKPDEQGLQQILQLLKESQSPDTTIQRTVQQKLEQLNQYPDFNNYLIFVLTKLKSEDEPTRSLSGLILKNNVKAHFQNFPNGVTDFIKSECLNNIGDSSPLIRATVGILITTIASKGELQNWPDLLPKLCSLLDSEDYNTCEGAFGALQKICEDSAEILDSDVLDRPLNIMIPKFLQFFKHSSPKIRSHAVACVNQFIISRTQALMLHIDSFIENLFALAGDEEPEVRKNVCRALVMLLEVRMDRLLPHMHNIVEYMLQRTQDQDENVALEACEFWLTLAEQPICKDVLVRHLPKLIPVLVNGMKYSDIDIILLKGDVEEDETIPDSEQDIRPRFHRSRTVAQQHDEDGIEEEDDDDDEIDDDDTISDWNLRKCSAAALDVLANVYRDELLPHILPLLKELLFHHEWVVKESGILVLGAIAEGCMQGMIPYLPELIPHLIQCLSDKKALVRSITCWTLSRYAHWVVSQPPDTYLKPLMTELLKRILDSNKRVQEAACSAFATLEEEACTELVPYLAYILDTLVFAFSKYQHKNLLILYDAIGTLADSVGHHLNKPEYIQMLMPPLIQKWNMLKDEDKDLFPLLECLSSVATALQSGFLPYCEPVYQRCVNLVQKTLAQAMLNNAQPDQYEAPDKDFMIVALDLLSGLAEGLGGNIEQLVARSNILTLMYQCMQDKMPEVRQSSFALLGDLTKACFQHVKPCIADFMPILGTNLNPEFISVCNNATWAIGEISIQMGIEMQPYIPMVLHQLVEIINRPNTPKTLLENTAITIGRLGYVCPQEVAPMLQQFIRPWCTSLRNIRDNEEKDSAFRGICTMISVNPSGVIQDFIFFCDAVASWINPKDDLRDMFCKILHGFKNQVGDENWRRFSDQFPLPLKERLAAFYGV
UniProt P35637, whole entry: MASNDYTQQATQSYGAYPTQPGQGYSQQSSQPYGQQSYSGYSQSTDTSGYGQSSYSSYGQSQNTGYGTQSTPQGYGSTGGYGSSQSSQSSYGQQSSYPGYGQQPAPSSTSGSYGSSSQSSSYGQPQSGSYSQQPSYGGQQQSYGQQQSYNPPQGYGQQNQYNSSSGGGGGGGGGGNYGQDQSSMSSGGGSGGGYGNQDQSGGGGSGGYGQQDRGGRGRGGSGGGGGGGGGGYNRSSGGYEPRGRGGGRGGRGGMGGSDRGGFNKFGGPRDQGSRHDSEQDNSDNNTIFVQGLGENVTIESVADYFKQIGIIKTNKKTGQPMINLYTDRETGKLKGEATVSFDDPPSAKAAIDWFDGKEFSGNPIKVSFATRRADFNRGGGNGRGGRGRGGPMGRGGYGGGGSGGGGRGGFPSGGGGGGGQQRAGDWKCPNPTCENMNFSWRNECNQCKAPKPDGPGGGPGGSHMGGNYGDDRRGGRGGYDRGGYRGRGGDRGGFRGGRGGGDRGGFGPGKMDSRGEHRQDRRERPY
UniProt P02754, 17-178 limits assumed: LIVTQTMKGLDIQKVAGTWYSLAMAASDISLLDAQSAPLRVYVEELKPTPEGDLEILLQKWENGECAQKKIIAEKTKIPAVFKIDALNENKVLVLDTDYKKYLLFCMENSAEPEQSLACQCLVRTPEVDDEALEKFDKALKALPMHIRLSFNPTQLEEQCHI

[2] = molecular target: MBP-tagged human FUS (MBP-FUS) (Homo sapiens, UniProt P35637); test: Fluorescence changes in probes due to FUS
From the text: MBP-tagged human FUS (Cell, 173(3):693-705.e22 (2018); hereinafter “MBP-FUS”), human karyopherin β2 (Cell, 173(3):693-705.e22 (2018); hereafter referred to as “Kapβ2”), C. elegans importin β family protein (UniProt accession number: A0A131MBF9; hereafter referred to as “Imb-2”), human heteronuclear ribonucleoprotein protein A2 (Cell, 163(4):829-839 (2015); hereafter described as “hnRNPA2LC”), and human peptidyl prolyl cis-trans isomerase A (Cell, 163(4):829-839 (2015); hereafter referred to as “PPIA”) were provided by Professor Tomohide Saio of the Institute for Advanced Enzyme Research, University of Tokushima. […]
A buffer solution (20 mM Tris-HCl (pH 7.5), 150 mM NaCl, and 2 mM DTT (final concentration)) was used to prepare the probe solutions (final concentration 300 nM) for probes 1 to 7 above. […] After incubation at 35 °C for 10 min, fluorescence intensity (fluorescence wavelength: 520 nm) and fluorescence spectrum (fluorescence wavelength: 400-700 nm) at an excitation wavelength of 340 nm were measured using a microplate reader (Cytation 5, BioTek). […] After incubation at 35 °C for 10 minutes, fluorescence intensity and fluorescence spectrum were measured under the same conditions as above. […]

[3] = molecular target: bovine milk-derived β-lactoglobulin (Bos taurus, UniProt P02754); test: Fluorescence change of probes by various proteins: β-lactoglobulin; settings: "any of the proteins", here β-lactoglobulin, 1600 nM
Description: (§3) Bovine milk-derived β-lactoglobulin, human serum-derived α1-antitrypsin, human serum-derived albumin, human serum-derived apotransferrin, and chicken egg white-derived lysozyme were purchased from Sigma-Aldrich. Human serum-derived immunoglobulin G was purchased from Equitech-Bio, Inc.
as §2, with “as above. […]” for “as above.”

[4] = test system: human serum-derived α1-antitrypsin, human serum-derived albumin (HSA), human serum-derived apotransferrin, chicken egg white-derived lysozyme, human serum-deriv; test: Fluorescence change of probes by various proteins: other proteins; settings: proteins other than β-lactoglobulin, 1600 nM; excitation 340 nm
Description: as §3
as §2, with “as above. […]” for “as above.”

[5] = molecular target: interaction between Dnc-PR20 and Kapβ2 (Homo sapiens, UniProt Q92973); test: Screening for DPRs-Kapβ2 binding inhibitors: Dnc-PR20/Kapβ2 mixture with additives (turn-off response)
From the text: as §1
A buffer solution (20 mM Tris-HCl (pH 7.5), 150 mM NaCl, and 2 mM DTT (final concentration)) was used to prepare a mixture of Dnc-PR20 (final concentration 300 nM) and Kapβ2 (final concentration 400 nM), and an automatic dispensing system (Andrew+, Andrew Alliance) was used to add 20 μL/well of each to a 384-well microplate (Corning, 3820). After incubation at 35 °C for 10 min, the fluorescence intensity (fluorescence wavelength: 520 nm) and fluorescence spectrum (fluorescence wavelength: 400-700 nm) were measured at an excitation wavelength of 340 nm using a microplate reader (Cytation 5, BioTek). Then, 5 μL/well of various concentrations of additives (poly K50 or IgG/pure water) were added using an automated pipetting system, and after incubation at 35 °C for 10 minutes, the fluorescence intensity and fluorescence spectrum were measured under the same conditions. As a control, the Dnc-PR20 solution without Kapβ2 was measured for fluorescence intensity and fluorescence spectrum in the same manner.
In addition to poly K50 and IgG, the 520 nm fluorescence intensity of Dnc-PR20 was measured with PAMAM, GST-M9M, RanGTP, ATP, and HSA as additives, using the same procedure as in Section 6 above.

Compound: CN(C)c1cccc2c(S(=O)(=O)NCC(=O)N3CCC[C@H]3C(=O)NCC(=O)N3CCC[C@H]3C(=O)NCC(=O)N3CCC[C@H]3C(=O)NCC(=O)N3CCC[C@H]3C(=O)NCC(=O)N3CCC[C@H]3C(=O)NCC(=O)N3CCC[C@H]3C(=O)NCC(=O)N3CCC[C@H]3C(=O)NCC(=O)N3CCC[C@H]3C(=O)NCC(=O)N3CCC[C@H]3C(=O)NCC(=O)N3CCC[C@H]3C(=O)NCC(=O)N3CCC[C@H]3C(=O)NCC(=O)N3CCC[C@H]3C(=O)NCC(=O)N3CCC[C@H]3C(=O)NCC(=O)N3CCC[C@H]3C(=O)NCC(=O)N3CCC[C@H]3C(=O)NCC(=O)N3CCC[C@H]3C(=O)NCC(=O)N3CCC[C@H]3C(=O)NCC(=O)N3CCC[C@H]3C(=O)NCC(=O)N3CCC[C@H]3C(=O)NCC(=O)N3CCC[C@H]3C(=O)O)cccc12
change of fluorescence spectrum on addition of Kapβ2 ([1]; 400-700 nm, excitation 340 nm): little changed | binding to Kapβ2 (conclusion from fluorescence) [1]: not | change of fluorescence spectrum on addition of MBP-FUS ([2]; 400-700 nm, excitation 340 nm): hardly changed | binding to MBP-FUS (conclusion from fluorescence) ([2]; 520 nm fluorescence intensity, n=3): not | change of fluorescence spectrum [3]: did not exhibit substantial changes | change of fluorescence spectrum [4]: did not exhibit substantial changes

Compound: CN(C)c1cccc2c(S(=O)(=O)NCC(=O)N3CCC[C@H]3C(=O)NCC(=O)N3CCC[C@H]3C(=O)NCC(=O)N3CCC[C@H]3C(=O)NCC(=O)N3CCC[C@H]3C(=O)NCC(=O)N3CCC[C@H]3C(=O)NCC(=O)N3CCC[C@H]3C(=O)NCC(=O)N3CCC[C@H]3C(=O)NCC(=O)N3CCC[C@H]3C(=O)NCC(=O)N3CCC[C@H]3C(=O)NCC(=O)N3CCC[C@H]3C(=O)O)cccc12
binding to Kapβ2 (conclusion from fluorescence) [1]: do not | change in fluorescence intensity on addition of Kapβ2 ([1]; excitation 340 nm): unchanged

Compound: 50-mer polylysine
change in 520 nm fluorescence intensity of Dnc-PR20 with additives ([5]; FIG. 10, Dnc-PR20/Kapβ2 mixture): attenuated | change in fluorescence intensity of Dnc-PR20 on addition of additive ([5]; additive 0-300 nM, Dnc-PR20 300 nM, Kapβ2 400 nM, 35 °C, 10 min): decreased in a poly K50 concentration-dependent manner | fluorescence intensity of Dnc-PR20 compared with control (Dnc-PR20 without Kapβ2) ([5]; additive 200 nM, Dnc-PR20 300 nM, Kapβ2 400 nM): comparable to that of the control | inhibition of the interaction between Dnc-PR20 and Kapβ2 ([5]; conclusion from fluorescence, n=3): inhibited the interaction between Dnc-PR20 and Kapβ2

Further lines, with some results ahead:

binding to Kapβ2 (conclusion from fluorescence) [1]: do not | change in fluorescence intensity on addition of Kapβ2 ([1]; excitation 340 nm): unchanged
Compound: C[C@H](NC(=O)CNC(=O)[C@H](C)NC(=O)CNC(=O)[C@H](C)NC(=O)CNC(=O)[C@H](C)NC(=O)CNC(=O)[C@H](C)NC(=O)CNC(=O)[C@H](C)NC(=O)CNC(=O)[C@H](C)NC(=O)CNC(=O)[C@H](C)NC(=O)CNC(=O)[C@H](C)NC(=O)CNC(=O)[C@H](C)NC(=O)CNS(=O)(=O)c1cccc2c(N(C)C)cccc12)C(=O)O

binding to Kapβ2 (conclusion from fluorescence) [1]: bind Kapβ2
Compound: CN(C)c1cccc2c(S(=O)(=O)NCC(=O)N[C@@H](CCCNC(=N)N)C(=O)NCC(=O)N[C@@H](CCCNC(=N)N)C(=O)NCC(=O)N[C@@H](CCCNC(=N)N)C(=O)NCC(=O)N[C@@H](CCCNC(=N)N)C(=O)NCC(=O)N[C@@H](CCCNC(=N)N)C(=O)NCC(=O)N[C@@H](CCCNC(=N)N)C(=O)NCC(=O)N[C@@H](CCCNC(=N)N)C(=O)NCC(=O)N[C@@H](CCCNC(=N)N)C(=O)NCC(=O)N[C@@H](CCCNC(=N)N)C(=O)NCC(=O)N[C@@H](CCCNC(=N)N)C(=O)O)cccc12
change in fluorescence intensity on addition of Kapβ2 ([1]; excitation 340 nm): increased in a Kapβ2 concentration-dependent manner

— patent US20260385988A1, “METHOD FOR SCREENING FOR PROTEINS ASSOCIATED WITH NEURODEGENERATIVE DISEASES AND THERAPEUTIC OR PROPHYLACTIC DRUGS FOR NEURODEGENERATIVE DISEASES” (published 2026)
